Screens deposited in PubChem by National Center for Advancing Translational Sciences (NCATS).
Shown are actives, neighbours in structure and some others; about 13% of the full set was active somewhere.
G9a inh = blocks human histone lysine methyltransferase G9a; Q96KQ7; G9a H3K9 monomethylation, AlphaScreen, 2 h; Potency, µM (highest dose often 102 µM), without a hit: at the top dose activity, negative = inhibition, usual class: inhibitors; 350,000 tested, 8.8% active; note: potency is the fitted concentration of half-maximal effect; % is set by controls: 0 for no effect and ±100 for the full control effect; nearly all actives have a fitted effect of over 75% in size
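Methyltransferase reactions run at room temperature for 2 h (20 nM enzyme, 500 nM biotin-H3K9 peptide, 20 uM SAM) after a 15 min compound preincubation; product detected by AlphaScreen beads and anti-H3K9me1 antibody.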
ALDH1A1 inh = ALDH1A1 (human) enzyme inhibition. Purified ALDH1A1, NADH fluorescence, propionaldehyde substrate. Potency, µM (titrated, usually from 75.3 µM), without a hit: at the top dose activity, negative = inhibition, usual class: inhibitors. 220,000 tested, 7.3% active. AID 1030; active = well fitted inhibition curve with a large enough effect, not every such curve was filed as active; inconclusive = small, poorly fitted or top-dose-only effect, or another doubt; inactive = no such curve, though single readings can be large or run the other way;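 note: potency is the fitted concentration of half-maximal effect; plate controls were no enzyme wells and a reference inhibitor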
LMNA splice mod = modulators of lamin A splicing; 200,000 tested, 0.01% active; HeLa LMNA splicing GFP/RFP minigene ratio, 48 h; Potency, µM (titrated, usually from 46.1 µM), for the others: at the top dose ratio change, negative = inhibition, most hits filed as inhibitors; AID 1487; active = well fitted inhibition curve with a large enough effect in the signal ratio, with a control signal flat, not every such curve was filed as active; inconclusive = small, poorly fitted or top-dose-only effect, or effect the other way, or a change in a side signal; the % refers to the signal ratio; note: potency is the fitted concentration of half-maximal effect; % is set by controls: 0 for no effect and ±100 for the full control effect
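Read-out is the ratio of GFP to DsRed2 object intensity, acquired by 488 nm laser-scanning cytometry on HeLa lamin A-EGFP minigene reporter cells. Compound incubation 48 hrs at 37 °C in Opti-MEM with 2% FBS; DMSO 0.5% final.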
Sfp inh = blocks B. subtilis Sfp PPTase activity. AID 1490. Q9F4F7. Biochemical Sfp PPTase activity, qHTS. hit rate 3.5% among 310,000. Potency, µM, for the others: max response, negative = inhibition, usual class: inhibitors; active = well fitted inhibition curve with a large enough effect; inconclusive = small, poorly fitted or top-dose-only effect, or another doubt; inactive = no such curve, though single readings can be large or run the other way;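 also: the enzyme is Sfp with the accession as filed and its product quenches rhodamine fluorescence; potency is read from the fitted curve at half-maximal effect; 0% = enzyme reaction without inhibitor and -100% = no enzyme wells; top concentration of the series not given in the record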
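Sfp 15 nM + cpd, 15 min RT; start w/ rhodamine-CoA 5 uM, BHQ-2-YbbR 12.5 uM (final); 50 mM Hepes pH 7.6, 10 mM MgCl2, 0.01% NP-40, 0.01% BSA; read 525/598 nm at 0 and 30 min.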
miR-21 reporter = miR-21 reporter, rising signal; HeLa miR-21 FLuc reporter, luciferase, 48 h; Potency, µM (titrated, usually from 38.3 µM), without a hit: top-dose reporter change, positive = more light; AID 2288; 340,000 tested, under 10 active; active = well fitted rising curve with a large enough effect; inconclusive = small, poorly fitted or top-dose-only effect; inactive = no such curve, though single readings can be large or run the other way;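 further: % of control where 0% means no effect; miR-21 action dims this reporter so a rising signal means less miR-21 action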
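Luminescence from a firefly luciferase reporter carrying a miR-21 binding site downstream, stably expressed under a CMV promoter in HeLa cells that make miR-21 endogenously, reports miRNA modulation after 48 h compound exposure up to approximately 40uM final.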
JMJD2E inh = JMJD2E (human) inhibition; B2RXH2; 230,000 tested, 1.6% active; Potency, µM (series often up to 57.1 µM), without a hit: at the top dose activity change, negative = inhibition, actives largely listed as inhibitors; JMJD2E catalytic domain, FDH-coupled NADH fluorescence (FDH is formaldehyde dehydrogenase);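 note: potency is the fitted concentration of half-maximal effect; 0% = wells with enzyme and -100% = buffer wells without enzyme; nearly all actives have a fitted effect of over 50% in size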
An asterisk follows results filed as active; u = inconclusive; x = no result given; [ ] = another dose, or the depositor's remark. Unless noted, calls come from the whole dose curve; as a rule, active = well fitted curve in the direction sought with a large enough effect; inconclusive = small, poorly fitted or top-dose-only effect, or another doubt; inactive = no such curve, though single readings can be large; an effect the other way counts as inactive or inconclusive.

SMILES | G9a inh | ALDH1A1 inh | LMNA splice mod | Sfp inh | miR-21 reporter | JMJD2E inh
COc1cccc(CN(C(=O)Cc2c[nH]c3ccccc23)C(C(=O)NC2CCCCC2)c2ccc(C)o2)c1 (stereo not drawn) | u | u | u | 9% | u | -5%
COc1ccc(CN(C(=O)Cc2c[nH]c3ccccc23)C(C(=O)NC2CCCCC2)c2ccc(C)o2)cc1 (stereo not drawn) | u | 6.3µM* | u | 15% | 28% | -2%
Cc1ccc(C(C(=O)NC2CCCCC2)N(Cc2ccccc2)C(=O)Cc2c[nH]c3ccccc23)o1 (stereo not drawn) | 2.5µM* | u | u | 12% | 28% | 3%
COc1cc(C(C(=O)NC2CCCCC2)N(Cc2cccs2)C(=O)Cc2c[nH]c3ccccc23)cc(OC)c1OC (stereo not drawn) | 11% | 0% | u | 0% | 13% | 3%
O=c1[nH]c(=S)[nH]c2c1C(c1ccc(Br)cc1)c1c([nH]c(=S)[nH]c1=O)O2 | 1.6µM* | x | x | 45µM* | -5% | x
CCSc1nc2c(c(=O)[nH]1)C(c1ccc(C)cc1)C1=C(CCCC1=O)N2 (stereo not drawn) | -4% | 4% | x | 21% | -6% | u
Cc1ccc(C2C3=C(CCCC3=O)Nc3[nH]c(=S)[nH]c(=O)c32)cc1 (stereo not drawn) | -50%[2.33 µM] | u | 3% | 7.9µM* | -3% | u
O=C1CCCC2=C1C(c1ccc(Br)cc1)c1c([nH]c(=S)[nH]c1=O)N2 (stereo not drawn) | 0.79µM* | u | -4% | -94% | 9% | u
CC1(C)CC(=O)C2=C(C1)Nc1[nH]c(=S)[nH]c(=O)c1C2c1ccccc1 (stereo not drawn) | 11µM* | u | 4% | 28µM* | 0% | u
CCc1cccc(NS(=O)(=O)c2ccc3c(c2)NC(=O)CO3)c1 | u | x | x | 15% | 4% | x
CCn1c(O)c(C2=c3ccccc3=NC2=O)c2cc(Br)ccc21 | u | 7% | x | -21% | 1% | -8%
O=C1N=c2ccccc2=C1c1c(O)n(-c2cccc(F)c2)[nH]c1=O | 4µM* | 25µM* | 11% | 11µM* | -8% | u
CC(C)Oc1ccc(CNC(=O)c2cc3ccccn3n2)cc1 | -8%[59 µM] | x | x | x | -64% | x
O=S(=O)(O)c1ccc(N=NNc2ccc(Br)cc2)cc1 | 25µM* | x | x | 13% | -13% | x
CC1CCCCN1C(=O)COC(=O)c1cc(-c2cccs2)nn1-c1ccccc1 (stereo not drawn) | 26%[12.7 µM] | x | x | x | x | x
O=C(O)/C=C\c1cn(-c2ccccc2)nc1-c1cc2ccccc2o1 | -30% | u | x | -12% | -28% | u
CN(CC(=O)Nc1ccc(F)cc1)C(=O)c1cc(-c2cccs2)nn1-c1ccccc1 | -33% | x | x | x | x | x
O=C(O)c1cc(-c2cccs2)nn1-c1cccc(Cl)c1 | -28% | 6% | u | 89µM* | -7% | -15%
O=C(O)c1cc(-c2cc3ccccc3o2)nn1-c1ccccc1 | 45µM* | u | -2%[46 µM] | 14% | -16% | u
O=C(O)c1cc(-c2cccs2)nn1-c1ccccc1 | 45µM* | -20% | 2%[46 µM] | 28% | -5% | -1%
COc1ccc(NC(=O)CN(C)C(=O)c2cc(-c3cccs3)nn2-c2ccccc2)cc1 | 50µM* | x | x | x | x | x
COc1ccc(OCC(=O)Nc2cc(-c3nc4ccccc4o3)ccc2Cl)cc1 | 3%[59 µM] | x | x | x | -44% | x
CC(CCO)Nc1nc2c(c(=O)n(C)c(=O)n2C)n1Cc1ccc(Br)cc1 (stereo not drawn) | -10%[59 µM] | x | x | x | -12% | x
O=Cc1cn(-c2ccc(F)cc2)c2ccccc12 | 23%[59 µM] | 2µM* | 4% | -1% | -19% | -9%
COc1cc(C2c3sc(=O)[nH]c3SC3C(=O)N(c4ccc(C)cc4)C(=O)C32)ccc1O (stereo not drawn) | u | -8% | x | u | 3% | -5%

The closing 5 compounds of the section above lead into the next:
SMILES | G9a inh | ALDH1A1 inh | LMNA splice mod | Sfp inh | miR-21 reporter | JMJD2E inh
COc1ccc(NC(=O)CN(C)C(=O)c2cc(-c3cccs3)nn2-c2ccccc2)cc1 | 50µM* | x | x | x | x | x
COc1ccc(OCC(=O)Nc2cc(-c3nc4ccccc4o3)ccc2Cl)cc1 | 3%[59 µM] | x | x | x | -44% | x
CC(CCO)Nc1nc2c(c(=O)n(C)c(=O)n2C)n1Cc1ccc(Br)cc1 (stereo not drawn) | -10%[59 µM] | x | x | x | -12% | x
O=Cc1cn(-c2ccc(F)cc2)c2ccccc12 | 23%[59 µM] | 2µM* | 4% | -1% | -19% | -9%
COc1cc(C2c3sc(=O)[nH]c3SC3C(=O)N(c4ccc(C)cc4)C(=O)C32)ccc1O (stereo not drawn) | u | -8% | x | u | 3% | -5%
O=C1C2Sc3[nH]c(=O)sc3C(c3ccccc3)C2C(=O)N1c1ccccc1 (stereo not drawn) | -4%[0.501 µM] | u | 4% | 79µM* | 0% | u
CCOc1ccc(N2C(=O)C3Sc4[nH]c(=O)sc4C(c4ccc(OC)c(OC)c4)C3C2=O)cc1 (stereo not drawn) | u | x | x | -27% | -4% | -5%
COc1ccc(C2c3sc(=O)[nH]c3SC3C(=O)N(c4ccccc4)C(=O)C32)cc1 (stereo not drawn) | 8.9µM* | 22µM* | -8% | -10% | -4% | -5%
Cc1cccc(C(=O)Nc2nc(-c3nnn(-c4cc(C)ccc4C)c3C)ns2)c1 | 4%[59 µM] | x | x | x | u | x
Cc1ccc(Cl)cc1-n1c(=O)c2sc3ccccc3c2n(CC(=O)NC2CCCCC2)c1=O | 0%[59 µM] | x | x | x | 0% | x
OC(COCC1COc2ccccc2O1)CN1CCCCC1 (stereo not drawn) | -11% | 17% | -8% | 11% | -9% | 5%
C[N+]1(CC(O)COCC2COc3ccccc3O2)CCOCC1 (stereo not drawn) | 35µM* | -4% | u | 7% | 3% | 8%
CCN1CCN(CC(O)COCC2COc3ccccc3O2)CC1 (stereo not drawn) | u | 28µM* | -5%[46 µM] | 14% | -5% | -19%
OC(COCC1COc2ccccc2O1)CN1CCN(c2ccccc2)CC1 (stereo not drawn) | 36%[0.501 µM] | -7% | -4%[0.0737 µM] | -1% | -4% | 2%
CC1(C(O)(C#CC[N+]2(C)CCCCC2)c2ccccc2)CCCC1 (stereo not drawn) | u | -6% | 11%[46 µM] | 8% | 0% | -24%
CC1(C#CC[N+]2(C)CCCCC2)CCC2C(O1)c1ccccc1OC2(C)C (stereo not drawn) | 3.2µM* | 32µM* | 15%[46 µM] | 56µM* | 3% | u
CN(C(=O)c1cc2nc(-c3ccc4c(c3)OCO4)cc(C(F)(F)F)n2n1)c1ccc(OC(F)(F)F)cc1 | -5%[59 µM] | x | x | x | -6% | x
O=C(CSc1cccc[n+]1[O-])NN(c1ccccc1)c1ccccc1 | 7% | x | x | 12% | -16% | 5%
Cc1cc(C(=O)CSc2cccc[n+]2[O-])c(C)n1-c1ccc(Br)cc1 | 35µM* | u | x | -13% | -33% | -1%
Cc1cc(C(=O)CSc2cccc[n+]2[O-])c(C)n1-c1ccccc1 | u | u | x | -10% | -18% | -5%
O=C(CSc1cccc[n+]1[O-])c1ccc(Cl)s1 | 10µM* | 2% | 4%[46 µM] | 5% | -9% | 4%
O=C(CSc1cccc[n+]1[O-])c1ccccc1Br | 0.5µM* | 11% | u | 9% | -17% | 4%
